Source: patent publication US20040086946A1, “Methods of isolation of active compounds and activated targets” (priority 2002, published 2004)

Amino acid sequences for entries named in this document (tags omitted). A change or cut given only in a name is not applied to a line headed by its entry. Chains listed by the source or under a name are the forms on record and can include a tag or linker.
UniProt P12314: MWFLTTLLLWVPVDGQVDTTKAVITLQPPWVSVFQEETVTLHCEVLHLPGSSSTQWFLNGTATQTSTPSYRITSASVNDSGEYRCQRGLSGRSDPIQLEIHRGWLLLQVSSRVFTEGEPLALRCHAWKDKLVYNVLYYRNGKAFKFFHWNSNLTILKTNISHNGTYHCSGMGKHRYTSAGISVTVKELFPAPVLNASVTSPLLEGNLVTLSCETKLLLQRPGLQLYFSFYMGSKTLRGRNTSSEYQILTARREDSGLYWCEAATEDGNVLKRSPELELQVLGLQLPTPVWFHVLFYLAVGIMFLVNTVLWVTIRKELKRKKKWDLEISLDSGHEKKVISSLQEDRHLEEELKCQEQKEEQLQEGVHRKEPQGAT
FcR-MC4R (Homo sapiens, UniProt P12314+P32245), UniProt P12314+P32245, fused: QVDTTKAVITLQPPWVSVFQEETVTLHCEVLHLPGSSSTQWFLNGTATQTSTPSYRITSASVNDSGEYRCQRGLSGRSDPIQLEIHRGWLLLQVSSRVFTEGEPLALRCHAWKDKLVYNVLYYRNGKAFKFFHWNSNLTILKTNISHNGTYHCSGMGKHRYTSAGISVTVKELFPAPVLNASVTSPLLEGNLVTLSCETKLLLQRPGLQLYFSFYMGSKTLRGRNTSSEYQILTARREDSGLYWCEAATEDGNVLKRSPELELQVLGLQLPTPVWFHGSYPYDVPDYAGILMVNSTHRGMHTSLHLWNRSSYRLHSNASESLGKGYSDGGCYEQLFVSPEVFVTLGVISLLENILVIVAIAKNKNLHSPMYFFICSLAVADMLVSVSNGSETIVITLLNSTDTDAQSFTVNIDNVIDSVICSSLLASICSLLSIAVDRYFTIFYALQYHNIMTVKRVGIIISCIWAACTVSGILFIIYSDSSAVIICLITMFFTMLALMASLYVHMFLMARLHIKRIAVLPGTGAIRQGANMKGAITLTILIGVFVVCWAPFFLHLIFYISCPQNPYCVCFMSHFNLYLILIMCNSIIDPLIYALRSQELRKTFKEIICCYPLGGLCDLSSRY
UniProt P32245: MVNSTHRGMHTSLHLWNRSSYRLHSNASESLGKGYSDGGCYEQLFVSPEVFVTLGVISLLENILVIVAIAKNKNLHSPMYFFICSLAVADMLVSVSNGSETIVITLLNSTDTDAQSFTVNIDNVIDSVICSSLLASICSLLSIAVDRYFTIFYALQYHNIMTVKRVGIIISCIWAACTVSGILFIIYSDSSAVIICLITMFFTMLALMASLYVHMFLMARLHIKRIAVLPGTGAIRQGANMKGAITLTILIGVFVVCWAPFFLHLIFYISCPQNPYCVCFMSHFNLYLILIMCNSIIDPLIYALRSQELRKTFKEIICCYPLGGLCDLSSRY

Biological target: T1, FcR-MC4R (Homo sapiens, UniProt P12314+P32245)
T1 construct: extracellular domain (residues 1-292, with its own signal peptide) of human Fc-gammaR1 = CD64 (NM_000566); expressed in transfected cells; host or cells: HEK293
Test: Activation of FcR-MC4R fusion in transfected HEK293 cells, CRE-luciferase reporter
Format: cell-based
Conditions: with versus without Fc::FcR anchor::dock

His Phe Arg Trp [HFRW]
increase in potency to activate MC4R by the addition of the Fc::FcR anchor::dock interaction: ≥ 5 order of magnitude
